The record followed here is PMC10585379, “Hydrophobic moment drives penetration of bacterial membranes by transmembrane peptides” (The Journal of Biological Chemistry, 2023).

The nature of this series: Tryptophan quenching assay with dibrominated lipid LUVs. The series is classed as physicochemical. The conditions noted are these: 5 μM peptide or BSA, peptide-to-lipid ratio of 62.5, 0-30% brominated lipid, Stern-Volmer plot; mean of three independent analyses. On the procedure: Large unilamellar vesicles (LUVs) were prepared using methods previously described ([14]). Briefly, 1-palmitoyl-2-oleoyl-sn-glycero-3-phosphoethanolamine (POPE) and 1-palmitoyl-2-oleoyl-sn-glycero-3-phospho-(1′-rac-glycerol) (POPG) (Avanti Polar Lipids) were combined in a 3:1 ratio, respectively, in chloroform and dried to a film before water washing and lyophilizing into a powder. This powder was resuspended in Tris-Cl buffer (10 mM Tris, 10 mM NaCl, pH 7), freeze-thawed 5× (dry ice – 50 °C water bath) and extruded through a mini-extruder fitted with a 0.2 μm Whatman Nuclepore polycarbonate membrane filter (Cytiva) at least 15× to form LUVs. Where applicable, 1-palmitoyl-2-(6,7-dibromo)stearoyl-sn-glycero-3-phosphocholine (PC-Br ([6], [7])) or 1-palmitoyl-2-(11,12-dibromo)stearoyl-sn-glycero-3-phosphocholine (PC-Br ([11], [12])) (Avanti Polar Lipids) were substituted for POPE at the given percentages and incorporated into LUVs as described.
Brominated lipid-containing LUVs (0%, 10%, 20%, and 30%) were combined with 5 μM peptide and tryptophan emission fluorescence was recorded from 300 to 400 nm using a 280 nm excitation wavelength. Fluorescence spectra were plotted and the area under the curve was used to generate a Stern-Volmer plot of initial fluorescence/quenched fluorescence (Fo/F) against percentage brominated lipid. […]

For the substance “Bovine serum albumin [BSA, reference compound]”, the “Tryptophan fluorescence quenching by PC-Br(6,7)-containing LUVs” value is “little to no quenching” and the “Tryptophan fluorescence quenching by PC-Br(11,12)-containing LUVs (depth of insertion)” value is given as “little to no quenching”.
